From patent US10946092

The chains behind the UniProt entries cited, without tags or fusion partners. Where a name states a change or a piece, a line headed by the entry shows the natural chain unless it says otherwise. Residues count along the entry.
UniProt P18627, 23-450: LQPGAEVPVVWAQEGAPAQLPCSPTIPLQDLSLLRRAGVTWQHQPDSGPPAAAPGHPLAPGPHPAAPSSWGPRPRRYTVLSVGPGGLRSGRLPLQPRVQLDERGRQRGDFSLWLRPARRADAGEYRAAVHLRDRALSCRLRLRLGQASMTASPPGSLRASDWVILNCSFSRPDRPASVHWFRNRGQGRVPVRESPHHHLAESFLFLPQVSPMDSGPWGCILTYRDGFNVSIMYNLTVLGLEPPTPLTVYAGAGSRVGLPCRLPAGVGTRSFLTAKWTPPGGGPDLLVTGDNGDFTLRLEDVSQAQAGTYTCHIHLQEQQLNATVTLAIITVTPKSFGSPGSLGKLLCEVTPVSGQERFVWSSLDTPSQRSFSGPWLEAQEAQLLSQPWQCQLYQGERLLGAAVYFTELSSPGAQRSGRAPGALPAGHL

Key:
[1] = molecular target: hLAG-3-hIg fusion protein (human LAG-3 extracellular domain fused to human Fc; Sino Biological, Cat #: 16498-H02H) (human) (UniProt P18627); experiment: FACS blocking assay; antibody titrated against 10 µg/ml hLAG-3-hIg binding to MHC II on Daudi cells
[2] = molecular target: recombinant human LAG3(ECD)-his (Sino Biological, Cat #: 16498-H08H) (human) (UniProt P18627); experiment: ELISA, coated human LAG3(ECD)-his

BMS-986016 (antibody)
EC50 [1]: 13 nM | EC50 [2]: 1.23 nM
